Patent publication US20130129595A1 (SOLVAY SA, priority 2010, published 2013)

Test: Solubility of LiPO2F2, LiF and LiPF6 in organic solvents
Conditions: for Solubility of LiPO2F2: ambient temperature

**Q.** With Lithium difluorophosphate as the substance, how does the “Solubility of LiPO2F2” value (in acetone) read?
**A.** The value was 20 g/100 g solvent.

**Q.** And the “Solubility of LiPO2F2” value (in acetonitrile)?
**A.** Its value is 2.8 g/100 g solvent.

**Q.** And the “Solubility (in words)” value (in aprotic organic solvents)?
**A.** The value was “in between”.

**Q.** What about the “Solubility of LiPO2F2” value (in diethyl carbonate) of the same substance?
**A.** The value was 0.4 g/100 g solvent.

**Q.** What about the “Solubility of LiPO2F2” value (in dimethoxyethane) of the same substance?
**A.** The value was 37 g/100 g solvent.

**Q.** What about the “Solubility (in words)” value (in dimethyl carbonate and propylene carbonate) of the same substance?
**A.** Its value is “at least fairly soluble”.

**Q.** What about the “Solubility of LiPO2F2” value (in dimethyl carbonate/propylene carbonate (1:1 v/v)) of the same substance?
**A.** The value was 0.4 g/100 g solvent.

**Q.** And the “Content of LiPO2F2 in solution relative to the total weight of the solution” value (in propylene carbonate, standard conditions (25° C., 1 Bara))?
**A.** The value was “up to 3 % by weight”.
